Test results reported in PMC12794078, “Real-Time Binding Kinetics of Small Molecules to CA IX in Live Suspension Cells Using SPR Microscopy” (ACS Medicinal Chemistry Letters, 2025).

Assays:
CA II = details: ex vitro purified CA II, published values; reference number not given; read-out: Reported values CA II; cited from earlier work
[1] = biological target: CA IX on live Ramos B cells (Homo sapiens, UniProt Q16790); assay: SPRM kinetic titration of small molecules on live Ramos B suspension cells (1:1 kinetic model, 600 ROIs)

Which Kd (CA II) does the source give for `NS(=O)(=O)c1ccc(C(=O)O)cc1` [4-CBS, 4-Carboxybenzenesulfonamide] here?
The Kd was 893 nM.

What about the “k a, SPRM results for CA IX” value [1] of the same compound?
The value was 1.10 × 10^03 M^–1 s^–1.

And the “kd, SPRM results for CA IX” value [1]?
Its value is 1.19 × 10^–03 s^–1.
